Measured values reported in PubChem BioAssay AID861 (The Scripps Research Institute Molecular Screening Center, 2007).
The list shows a part of the results, in another mix than the full data. Activity calls are given as the source filed them. Cut-off read from the data, not from the text of the source: active = inhibition above about 25%; inactive = the rest.

The chains behind the UniProt entries cited, without tags or fusion partners.
UniProt O00206, whole entry, looked up: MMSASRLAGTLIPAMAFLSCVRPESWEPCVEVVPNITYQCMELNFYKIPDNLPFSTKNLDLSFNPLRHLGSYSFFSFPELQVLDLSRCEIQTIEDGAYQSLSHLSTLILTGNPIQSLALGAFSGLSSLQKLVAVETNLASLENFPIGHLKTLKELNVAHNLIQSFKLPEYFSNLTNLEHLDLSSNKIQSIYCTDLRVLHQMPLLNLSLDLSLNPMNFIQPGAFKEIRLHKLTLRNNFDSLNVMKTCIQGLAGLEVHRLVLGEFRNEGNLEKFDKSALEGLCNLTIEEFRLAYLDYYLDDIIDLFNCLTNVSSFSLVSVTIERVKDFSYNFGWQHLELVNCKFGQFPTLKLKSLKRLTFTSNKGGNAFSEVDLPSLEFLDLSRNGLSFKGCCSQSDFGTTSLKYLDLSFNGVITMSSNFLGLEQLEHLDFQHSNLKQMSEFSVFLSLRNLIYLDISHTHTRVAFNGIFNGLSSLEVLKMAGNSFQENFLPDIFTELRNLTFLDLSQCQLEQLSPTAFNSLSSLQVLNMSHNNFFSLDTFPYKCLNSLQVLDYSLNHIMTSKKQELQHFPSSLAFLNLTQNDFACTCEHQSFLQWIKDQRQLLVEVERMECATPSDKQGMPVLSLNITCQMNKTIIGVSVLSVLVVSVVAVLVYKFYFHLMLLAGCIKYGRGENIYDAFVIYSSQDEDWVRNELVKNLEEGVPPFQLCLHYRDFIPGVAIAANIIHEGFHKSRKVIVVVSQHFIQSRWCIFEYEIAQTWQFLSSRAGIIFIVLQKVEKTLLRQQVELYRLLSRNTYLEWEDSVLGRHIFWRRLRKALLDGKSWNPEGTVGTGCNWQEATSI
UniProt Q99836, whole entry, looked up: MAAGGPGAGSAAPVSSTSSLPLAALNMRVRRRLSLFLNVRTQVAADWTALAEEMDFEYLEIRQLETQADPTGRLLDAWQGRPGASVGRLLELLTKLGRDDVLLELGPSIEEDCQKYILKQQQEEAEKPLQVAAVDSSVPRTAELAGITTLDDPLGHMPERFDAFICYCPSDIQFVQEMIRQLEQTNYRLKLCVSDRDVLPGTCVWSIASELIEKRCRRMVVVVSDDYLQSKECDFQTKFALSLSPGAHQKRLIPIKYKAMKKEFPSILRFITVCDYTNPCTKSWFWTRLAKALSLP

target: Toll-like receptor 4 (Homo sapiens) + Myeloid differentiation primary response protein MyD88 (Homo sapiens) (UniProt O00206+Q99836); assay: disruptors of TLR4 binding to MyD88 – cell-based, HeLa CL3-4, BLA complementation, FRET ratio, primary screen (AID 861); conditions: HeLa CL3-4 TLR4/MyD88 BLA complementation, at 8.4 µM, hits give high values;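 note: 0% = vehicle and 100% = reference inhibitor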

Row | SMILES | inhibition
1 | O=[N+]([O-])c1ncn(CCn2ncnc2[N+](=O)[O-])n1 | inactive: -4.23%
2 | CC1CCN(C(=O)Oc2c(Cl)cc(Cl)c3cccnc23)CC1 | inactive: -16.5%
3 | CN(C)C(=O)OCCc1n(C)cc[n+]1C | inactive: -1.67%
4 | CC(C)=N/N=C(\N)N[N+](=O)[O-] | inactive: 0.39%
5 | CCN(/C(=N/P(=O)(N1CCOCC1)N1CCOCC1)N1CCOCC1)c1ccc(OC)cc1 | inactive: -16.3%
6 | CCc1nc2c(n1)c1c(non1O)c1c2no[n+]1[O-] | inactive: 23.1%
7 | O=[N+]([O-])c1cc([N+](=O)[O-])c(CCNc2ccccc2)c([N+](=O)[O-])c1 | inactive: 11.7%
8 | Cc1ccc(NP(=O)(Oc2ccccc2)Oc2ccccc2)nc1 | inactive: 4.61%
9 | O=[N+]([O-])c1cccc2n[nH]nc12 | inactive: 10.5%
10 | CC(=O)N1C2C3N(C(C)=O)C1C1N(C(C)=O)C(C(N1C(C)=O)N3C(C)=O)N2C(C)=O | inactive: 1.65%
11 | COc1ccc(C2=NCC(CBr)S2)cc1 (centres undefined) | inactive: 6.48%
12 | O=C(NC(Sc1ccncn1)C(Cl)(Cl)Cl)c1ccccc1 (centres undefined) | inactive: -0.44%
13 | Cc1c2non([O-])c-2c(C)[n+](=O)[n+]1[O-] | active: 26%
14 | Oc1ccccc1CNc1ccccn1 | inactive: -9.77%
15 | CC(C)CC(=O)NC(Sc1ccc(Cl)cc1)C(Cl)(Cl)Cl (centres undefined) | inactive: -6.22%
16 | CN1CCCC(OC(=O)C(c2ccccc2)c2ccccc2)C1 (centres undefined) | inactive: 1.02%
17 | Clc1ccc(Cl)c(NC2=NCC(CBr)S2)c1 (centres undefined) | inactive: -0.55%
18 | COc1ccccc1OP(=O)(Nc1ccc(C)cn1)Oc1ccccc1OC | inactive: -17.9%
19 | Cc1ccc(N/C(=N/P(=O)(N2CCOCC2)N2CCOCC2)N2CCOCC2)cc1 | inactive: 1.78%
20 | NC(=O)c1cc([N+](=O)[O-])cc([N+](=O)[O-])c1N | inactive: 2.69%
21 | CCN(N=Nc1nonc1N)c1nonc1N | inactive: 4.26%
22 | Cc1cc(SC(NC(=O)c2ccc(F)cc2)C(Cl)(Cl)Cl)ncn1 (centres undefined) | inactive: -7.48%
23 | CCOP(=O)(Nc1ccccc1)OCC | inactive: 9.89%
24 | O=c1c2cc([N+](=O)[O-])ccc2[nH]c2c([N+](=O)[O-])cc([N+](=O)[O-])cc12 | inactive: 4.41%
25 | CCC(=O)N1C2C3N(C(=O)CC)C1C1N(C(=O)CC)C(C(N1C(=O)CC)N3C(=O)CC)N2C(=O)CC | inactive: -9.97%
26 | Cc1ccc(OP(=O)(Nc2ccccn2)Oc2ccc(C)cc2)cc1 | inactive: -12.3%
27 | CC(=O)NC(SC(=S)N(CC(C)C)CC(C)C)C(Cl)(Cl)Cl (centres undefined) | inactive: -5.82%

Row | SMILES | inhibition
28 | COC(=O)c1cc2c(s1)N=C(c1ccccc1)N(C)P2(=O)N1CCOCC1 (centres undefined) | inactive: 10.6%
29 | CCOC(=O)NC(Sc1ccccc1)C(Cl)(Cl)Cl (centres undefined) | inactive: -3.82%
30 | c1ccc(-c2nn[nH]n2)c(-c2nn[nH]n2)c1 | inactive: 12.9%
31 | CCNC(=S)/N=C(\N)N[N+](=O)[O-] | inactive: 16.4%
32 | O=C(NC1CCS(=O)(=O)C1)NP(=S)(Oc1ccccc1)Oc1ccccc1 (centres undefined) | inactive: 5.54%
33 | CC(=O)Nc1ccc(Oc2c([N+](=O)[O-])cc([N+](=O)[O-])cc2[N+](=O)[O-])cc1 | inactive: 6.79%
34 | CC(C)(C)C(=O)NC(Sc1ccccc1)C(Cl)(Cl)Cl (centres undefined) | inactive: -5.26%
35 | CCOc1ccc(C2=NCC(CBr)S2)cc1 (centres undefined) | inactive: -4.28%
36 | O=P1(Nc2nc3ccc(Cl)cc3s2)COc2ccccc2O1 (centres undefined) | inactive: -1.44%
37 | c1nnnn1CCn1cnnn1 | inactive: -20.7%
38 | CC(C)C(=O)NC(Sc1ccccc1)C(Cl)(Cl)Cl (centres undefined) | inactive: 0.5%
39 | O=P(Nc1nccs1)(c1ccccc1)c1ccccc1 | inactive: 16.3%
40 | O=C(OC1CN2CCC1CC2)c1cccc(Cl)c1 (centres undefined) | inactive: 3.04%
41 | C(Cc1nn[nH]n1)Cc1nn[nH]n1 | inactive: 1.33%
42 | CC(=O)NC(SC(=S)N(C)C)C(Cl)(Cl)Cl (centres undefined) | inactive: 4.74%
43 | O=P(Nc1ccccn1)(c1ccc(Br)cc1)c1ccc(Br)cc1 | inactive: -1.89%
44 | Cc1ccc(OCC(=O)OC2CN3CCC2CC3)cc1 (centres undefined) | inactive: -0.33%
45 | O=P1(Nc2ccc(Br)cn2)COc2ccccc2OC1 | inactive: 1.39%
46 | O=P1(Nc2ncccn2)COc2ccccc2OC1 | inactive: 4.8%
47 | CN(C)C1(CNC(=O)c2ccc(S(C)(=O)=O)cc2)CCCCC1 | inactive: -24.3%
48 | CC1CCC(C(C)C)C(OP(=O)(Nc2ccccn2)c2ccccc2)C1 (centres undefined) | inactive: 8.83%
49 | Cc1nn(-c2ccccc2)c2c1P(=O)(N1CCOCC1)N(C)C(c1ccccc1)=N2 (centres undefined) | inactive: -4.78%
50 | CC(C)/C=N\N=C(\N)N[N+](=O)[O-] | inactive: -6.91%
51 | CC1(CBr)Cn2c(nc3ccccc3c2=O)S1 (centres undefined) | inactive: -4.86%
52 | Clc1n[nH]nc1-c1nn[nH][15n]1 | inactive: -2.02%
53 | O=P1(Nc2ccccn2)COc2ccccc2OC1 | inactive: -9.71%
54 | CCOP(=O)(Nc1cccc2ccccc12)OCC | inactive: -3.29%

Row | SMILES | inhibition
55 | COc1cc(C2NCCC3(OCCO3)C2(C)C)cc(OC)c1OC (centres undefined) | inactive: -22.1%
56 | Cc1ccc(NCCc2c([N+](=O)[O-])cc([N+](=O)[O-])cc2[N+](=O)[O-])cc1 | inactive: -16.6%
57 | Cc1cccc(OCC(=O)OC2CN3CCC2CC3)c1 (centres undefined) | inactive: -6.33%
58 | COc1cc(C(=O)NCC2(N3CCOCC3)CCCCC2)cc(Cl)c1OC(C)C | inactive: -2.28%
59 | CCOP1(=S)c2c(C)nn(CCC#N)c2N=C(c2ccc(F)cc2)N1C (centres undefined) | inactive: -2.49%
60 | O=[N+]([O-])c1ccc2c(c1)nnn2O | inactive: -1.39%
61 | O=P(Nc1nccs1)(Oc1ccccc1)Oc1ccccc1 | inactive: 0.4%
62 | O=P(Nc1nccs1)(c1ccccc1)c1nc2ccccc2s1 (centres undefined) | inactive: 7.68%
63 | CCOP1(=S)c2c(C)nn(CCC#N)c2N=C(c2ccccc2F)N1C (centres undefined) | inactive: -0.75%
64 | O=[N+]([O-])c1cc([N+](=O)[O-])c(-c2ccn[nH]2)s1 | inactive: -1.72%
65 | CC(C)NC(=O)NP(=O)(Oc1ccccc1)Oc1ccccc1 | inactive: 8.37%
66 | CCN(CC)C(=S)SC(NC=O)C(Cl)(Cl)Cl (centres undefined) | inactive: -12.8%
67 | ClCCSc1nnc(-c2cccnc2)o1 | inactive: -7.77%
68 | Cc1ccc2nc3c(c(C)c2c1)CC(C(Cl)Cl)S3 (centres undefined) | inactive: 5.78%
69 | COc1ccc(N/C(=N/P(=O)(N2CCOCC2)N2CCOCC2)N2CCOCC2)cc1 | inactive: 4.3%
70 | COc1ccc2nc(NP(=O)(c3ccccc3)c3ccccc3)sc2c1 | inactive: -2.58%
71 | Cc1c2c(nc3ccccc13)SC(C(Cl)Cl)C2 (centres undefined) | inactive: 14.5%
72 | Cc1cc(=O)[nH]c(N[N+](=O)[O-])n1 | inactive: -16.7%
73 | O=C(OC1CN2CCC1CC2)C12CC3CC(CC(C3)C1)C2 (centres undefined) | inactive: -21.3%
74 | CCC(C)N(CC(C)C)C(=S)SC(NC(C)=O)C(Cl)(Cl)Cl (centres undefined) | inactive: 10.6%
75 | O=C(COc1ccccc1)OC1CN2CCC1CC2 (centres undefined) | inactive: 4.72%
76 | COP1(=S)c2c(C)nn(CCC#N)c2N=C(c2ccc(F)cc2)N1C (centres undefined) | inactive: -1.61%
77 | O=P(Nc1ccccn1)(c1cccc2ccccc12)c1cccc2ccccc12 | inactive: 12.5%
78 | Cc1cc(SC(NC=O)C(Cl)(Cl)Cl)ncn1 (centres undefined) | inactive: 0.79%
79 | Cc1cc(SC(NC(=O)c2ccccc2)C(Cl)(Cl)Cl)nc(C(C)C)n1 (centres undefined) | inactive: 11.6%
